In patent US20140220094A1, “METHODS AND COMPOSITIONS FOR A LAPAROSCOPIC SURGERY” (Prelief Inc., priority 2009, published 2014):

Assay: Water solubility of CGP (saturated solution)
Format: physicochemical
Text: CGP has a relatively low water solubility. A saturated CGP solution only contains about 1% CGP. Thus, CGP exists in a suspension in a liquid composition containing higher concentrations of CGP. In the absence of a stabilizer, CGP possibly exists in gritty grains, which can be abrasive and thus irritate, not soothe, the urethral surface.

calcium glycerophosphate [CGP]
CGP content of a saturated CGP solution (water solubility): about 1%
